Data from BindingDB's records for 16686532 (Universit&#224, 2006).

Amino acid sequences for entries named in this document (tags omitted).
UniProt P23944, whole entry, looked up: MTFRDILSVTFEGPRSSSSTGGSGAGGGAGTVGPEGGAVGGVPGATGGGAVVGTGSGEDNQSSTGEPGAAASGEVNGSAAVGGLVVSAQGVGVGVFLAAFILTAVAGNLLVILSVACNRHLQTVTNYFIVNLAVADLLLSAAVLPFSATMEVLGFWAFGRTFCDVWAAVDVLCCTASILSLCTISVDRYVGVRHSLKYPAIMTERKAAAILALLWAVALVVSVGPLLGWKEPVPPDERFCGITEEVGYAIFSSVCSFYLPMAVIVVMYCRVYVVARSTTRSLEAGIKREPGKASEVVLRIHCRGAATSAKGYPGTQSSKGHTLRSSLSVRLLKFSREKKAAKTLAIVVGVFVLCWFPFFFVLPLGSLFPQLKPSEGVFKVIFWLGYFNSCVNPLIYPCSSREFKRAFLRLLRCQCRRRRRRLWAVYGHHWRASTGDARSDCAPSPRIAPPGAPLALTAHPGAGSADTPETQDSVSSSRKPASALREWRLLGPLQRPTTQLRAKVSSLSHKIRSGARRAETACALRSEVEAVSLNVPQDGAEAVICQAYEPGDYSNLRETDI

Molecular target: Alpha-1D adrenergic receptor (Rattus norvegicus, UniProt P23944)
Test: Vasodilator activity assessed as ability to relax phenylephrine-induced contraction of Wistar rat aortic strips

## CCCO[N+](=O)[O-]
  EC50: 41 µM
